Consider one compound from paper PMC8948939 (Pharmaceutics, 2022).

Protein sequences, listed by entry. Tags and fused reporters are not part of them.
UniProt P11712, whole entry: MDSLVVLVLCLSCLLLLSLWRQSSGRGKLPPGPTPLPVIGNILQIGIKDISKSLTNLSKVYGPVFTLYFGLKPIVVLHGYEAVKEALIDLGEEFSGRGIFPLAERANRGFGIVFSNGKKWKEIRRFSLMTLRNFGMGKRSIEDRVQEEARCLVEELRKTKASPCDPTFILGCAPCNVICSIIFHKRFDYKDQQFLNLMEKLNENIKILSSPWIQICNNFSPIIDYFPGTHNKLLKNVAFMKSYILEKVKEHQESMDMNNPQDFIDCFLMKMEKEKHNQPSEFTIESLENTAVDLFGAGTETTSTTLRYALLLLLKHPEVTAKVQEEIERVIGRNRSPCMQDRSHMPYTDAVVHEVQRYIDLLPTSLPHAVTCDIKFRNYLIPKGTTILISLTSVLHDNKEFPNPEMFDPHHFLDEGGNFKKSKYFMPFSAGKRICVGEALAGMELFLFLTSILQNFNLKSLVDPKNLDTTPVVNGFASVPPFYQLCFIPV

The series deals with CYP2C9 (Homo sapiens, UniProt P11712).

On to `O=C(O)Cc1ccccc1Nc1c(Cl)cccc1Cl` [Diclofenac, diclofenac], for which the “Vmax,rhCYP (95% CI)” value was 13.5 pmol/min∙pmol.
